In paper PMC10359466:

Molecular target: HsRPA complex: 6xHis-RPA1;HsRPA2;HsRPA3 (Homo sapiens;Homo sapiens;Homo sapiens, UniProt P27694;P15927;P35244 1-616;1-270;1-121, ||)
Experiment: MST; 20 mM Tris pH 7.5, 10 mM NaCl, 10 mM MgCl2, 2 mM DTT, 10% glycerol, 0.1 mg/ml BSA, 15 min, room temperature; EMSA 2 nM probe (gel at 4 C), MST 10 nM probe
Settings: protein: recombinant;recombinant;recombinant; tags: N-term 6xHis, thrombin site;none;none; copies: 1;1;1; label: 5' Cy5 (MST) or 5' IRDye800 (EMSA); single strand

Binder: TTTTTTTTTTTTTTTTTTTTTTTTTTTTTTTT (ssDNA) [dT32]
- Kd: 15.8 ± 6.6 nM
